Here are results for one molecule from US11014971B2, “Peptibodies, compositions thereof, and methods of treating atrial fibrillation” (University of South Florida, priority 2016, dated 2021).

In one data set the target is T1, Kir3.1/Kir3.4 (Homo sapiens, UniProt P48544+P48549).
T1 construct: expressed in transfected cells; host or cells: HEK293 cells stably expressing Kir3.1/3.4 (GIRK cells)
T1 sequence (P48549 1-501): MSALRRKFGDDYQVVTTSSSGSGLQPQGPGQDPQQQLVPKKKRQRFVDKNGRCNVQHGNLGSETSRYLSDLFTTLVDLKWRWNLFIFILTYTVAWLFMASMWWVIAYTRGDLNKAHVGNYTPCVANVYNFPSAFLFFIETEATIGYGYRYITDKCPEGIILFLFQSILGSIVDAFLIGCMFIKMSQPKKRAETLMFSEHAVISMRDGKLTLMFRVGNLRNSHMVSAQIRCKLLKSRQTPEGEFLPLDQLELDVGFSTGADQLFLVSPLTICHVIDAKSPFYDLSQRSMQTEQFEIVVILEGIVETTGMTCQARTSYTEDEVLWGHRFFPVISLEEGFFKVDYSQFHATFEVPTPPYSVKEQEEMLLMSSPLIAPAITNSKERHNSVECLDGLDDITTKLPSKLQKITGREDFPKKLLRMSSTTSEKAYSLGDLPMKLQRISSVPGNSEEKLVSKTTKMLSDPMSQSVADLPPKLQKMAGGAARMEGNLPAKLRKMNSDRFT
T1 sequence (P48544 1-419): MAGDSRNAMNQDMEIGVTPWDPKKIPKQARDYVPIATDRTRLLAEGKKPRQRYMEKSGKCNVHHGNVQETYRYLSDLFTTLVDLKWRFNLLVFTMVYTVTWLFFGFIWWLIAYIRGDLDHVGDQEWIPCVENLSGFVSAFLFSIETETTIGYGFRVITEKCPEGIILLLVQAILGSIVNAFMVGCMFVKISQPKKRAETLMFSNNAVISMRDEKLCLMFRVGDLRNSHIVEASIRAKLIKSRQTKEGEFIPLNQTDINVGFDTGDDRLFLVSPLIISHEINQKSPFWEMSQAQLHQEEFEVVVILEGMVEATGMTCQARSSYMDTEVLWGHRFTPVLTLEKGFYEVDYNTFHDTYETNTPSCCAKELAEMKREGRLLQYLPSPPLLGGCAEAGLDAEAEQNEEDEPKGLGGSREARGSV
Kind of data set: Flow cytometry of fluorescently labeled TertiapinQ binding in unpermeabilized HEK cells stably transfected with Kir3.1/3.4. A general note: Flow cytometry measures light scatter and fluorescence of single cells or particles in a stream.

The target in the next data set is T2, IKACh (Kir3.1/3.4) (Homo sapiens, UniProt P48544+P48549).
T2 construct: expressed in transfected cells; host or cells: HEK293 cells stably expressing Kir3.1/3.4 (GIRK cells)
T2 sequence (P48549 1-501): T1 sequence (P48549 1-501)
T2 sequence (P48544 1-419): T1 sequence (P48544 1-419)
In words: Patch clamp of IKACh in Kir3.1/3.4 stably transfected HEK cells (GIRK cells), ramp protocol. Type of data set: cell-based. Background: Patch clamp records ionic current or voltage across a cell membrane.

The target in another data set is T3, IKACh (Homo sapiens, UniProt P48544+P48549).
T3 sequence (P48549 1-501): T1 sequence (P48549 1-501)
T3 sequence (P48544 1-419): T1 sequence (P48544 1-419)
As to conditions: cited from earlier work.

For data set [1], the system named is atrial action potential in a normal heart. The conditions noted are these: cited from earlier work.
Data set [2] relates to atrial myocytes from patients with chronic AF. As to conditions: cited from earlier work.
The subject of a further data set is cholinergic AF. The conditions noted are these: cited from earlier work.

As usually defined, the IC50 is the concentration at which inhibition is half-maximal. Read a high IC50 as lower potency. Take `CC[C@H](C)[C@@H]1NC(=O)[C@H](CCCNC(=N)N)NC(=O)[C@H](CC(N)=O)NC(=O)[C@@H]2CSSC[C@@H](C(=O)NCC(=O)N[C@@H](CCCCN)C(=O)N[C@@H](CCCCN)C(N)=O)NC(=O)[C@H](CCCCN)NC(=O)[C@H](CCCCN)NC(=O)[C@H](Cc3c[nH]c4ccccc34)NC(=O)[C@H](CSSC[C@H](NC(=O)[C@H](CC(C)C)NC(=O)[C@H](C)N)C(=O)N[C@@H](CC(N)=O)C(=O)N2)NC(=O)[C@H](CCC(N)=O)NC(=O)[C@H](Cc2c[nH]cn2)NC(=O)[C@@H]2CCCN2C(=O)[C@H]([C@@H](C)CC)NC(=O)[C@H]([C@@H](C)CC)NC1=O` [TertiapinQ]: the IC50 on Kir3.1/Kir3.4 came to 11 nM; against IKACh (Kir3.1/3.4) it was 70 nM. The “Hill coefficient of TertiapinQ fluorescence dose response curve” value on Kir3.1/Kir3.4 (flow cytometry, HEK Kir3.1/3.4 cells) is 1.7. In addition, the “Effect on basal, muscarinic stimulation independent, barium sensitive current” value at IKACh (Kir3.1/3.4) (50 nM, 50 mM extracellular K+) is recorded as “decreased”. Further, the “Hill coefficient of IKACh block dose response curve” value on IKACh (Kir3.1/3.4) (patch clamp, HEK Kir3.1/3.4 cells, n=5) amounted to 1.2. For the same molecule, the “Effect on constitutively active IKACh” value at IKACh was “inhibit”. In addition, the “Effect on the atrial action potential in a normal heart” value in data set [1] is given as “only minor effects”. The “Action potential duration in atrial myocytes from patients with chronic AF” value in data set [2] is “prolong”. Also, the “Effect on cholinergic AF” value in the data set on cholinergic AF is on record as “terminate”. Also, the “Effect on ventricular electrophysiology” value with cholinergic AF is recorded as “without affecting”.
